Key:
[1] = assay type: physicochemical
Source text: We successfully expressed the recombinant protein in BL21 bacteria and further purified the protein using NiNTA columns (using the binding capacity of a 6×His tag located before the TAT tag) (FIG. 8B.). This recombinant protein is referred to herein alternatively as “P1-TAT” and “FLJ13639/P1-TAT.” The amino acid sequence of P1-TAT is provide as SEQ ID NO:5. The sequence of the DNA encoding P1-TAT is provided as SEQ ID NO:14. FLJ13639 P1 was cloned into the expression vector using the forward primer having the sequence 5′[…] (SEQ ID NO:15) and the reverse primer having the sequence 5′[…] (SEQ ID NO:16). The P1-TAT protein is soluble in buffer containing salts and glycerol, and is suitable for administration by injection following high-grade purification.

HL60 cells = assay: JC-1 mitochondrial membrane potential staining, fluorescence microscopy; assay type: cell-based; conditions: 20 ug of FLJP 1-TAT alone
Source text: FIG. 14A is a graphical representation of green/red fluorescence intensity ratio data measured for treatment of HL60/VDR cells (a vinctrisin resistant cell line) as indicated for the x-axis. * indicates statistical significance.
Disruption of the mitochondrial membrane potential (Δψm) is an early event associated with apoptosis and may be one of several factors responsible for cytochrome c release (17, 18). Using JC-1 mitochondrial potential sensor (Molecular Probes, Inc) staining and fluorescence microscopy, we analyzed the Δψm in VCR (vincristin) treated HL60 cells. In healthy cells, the dye accumulates and aggregates in mitochondria, where it fluoresces bright red. In apoptotic cells, however, it cannot enter mitochondria if the Δψm is altered and fluoresces bright green as a cytoplasmic monomer. Therefore, mitochondria depolarization is indicated by a decrease of the red/green fluorescence intensity ratio.

B1: P1-TAT: recombinant FLJ13639/P1 protein in frame with HIV TAT protein transduction domain and 6×Histidine tag; amino acid sequence SEQ ID NO:5 (protein)
chain: MRGSHHHHHHGMASMTGGQQMGRDLYDDDDKDRWGSKLGYGRKKRRQRRRGGSTMSGYPYDVPDYAGSMAGTGLESLYRSVVWFAKGLREYTKSGYESACKDFVPHDLEVQIPGRVFLVTGGNSGIGKATALEIAKRGGTVHLVCRDQAPAEDARGEIIRESGNQNIFLHIVDLSDPKQIWKFVENFKQEHKLHVLINNAGCMVNKRELTEDGLEKNFAANTLGVYILTTGLIPVLEKEHDPRVITVSSGGMLVQKLNTNDLQSERTPFDGTMVYAQNKRQQVVLTERWAQGHPAIHFSSMHPGWADTPGVRQAMPGFHARFGDRLRSEAQGADTMLWLALSSAAAAQPSGRFFQDRKPVSTHLPLATASSSPAEEEKLIEILEQLAQTFK
- solubility [1]: soluble
- green/red fluorescence ratio (HL60 cells): low green/red fluorescence ratio

From patent publication US20090042782A1, “Diagnostic and therapeutic strategies for conditions associated with the FLJ13639 gene” (priority 2005, published 2009)
